Experimental data reported in paper PMC7723054.
This is one part of the list.

T1: LIN28A (human?, UniProt Q9H9Z2 1-209)
T1 sequence: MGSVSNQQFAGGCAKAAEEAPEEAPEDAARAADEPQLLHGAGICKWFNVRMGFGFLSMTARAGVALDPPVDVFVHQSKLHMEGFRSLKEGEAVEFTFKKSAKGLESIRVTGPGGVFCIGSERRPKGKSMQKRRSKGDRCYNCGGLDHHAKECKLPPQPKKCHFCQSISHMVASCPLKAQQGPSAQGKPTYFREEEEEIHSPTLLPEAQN

T2: CIRBP (Homo sapiens, UniProt Q14011 1-172)
T2 sequence: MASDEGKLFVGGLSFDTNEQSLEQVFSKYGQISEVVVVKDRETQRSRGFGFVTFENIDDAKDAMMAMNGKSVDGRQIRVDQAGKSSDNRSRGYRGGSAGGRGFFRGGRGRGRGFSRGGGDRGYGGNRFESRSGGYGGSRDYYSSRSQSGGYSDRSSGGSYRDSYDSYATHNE

T3: DHX36 (Homo sapiens, UniProt Q9H2U1 1-1008)
T3 sequence: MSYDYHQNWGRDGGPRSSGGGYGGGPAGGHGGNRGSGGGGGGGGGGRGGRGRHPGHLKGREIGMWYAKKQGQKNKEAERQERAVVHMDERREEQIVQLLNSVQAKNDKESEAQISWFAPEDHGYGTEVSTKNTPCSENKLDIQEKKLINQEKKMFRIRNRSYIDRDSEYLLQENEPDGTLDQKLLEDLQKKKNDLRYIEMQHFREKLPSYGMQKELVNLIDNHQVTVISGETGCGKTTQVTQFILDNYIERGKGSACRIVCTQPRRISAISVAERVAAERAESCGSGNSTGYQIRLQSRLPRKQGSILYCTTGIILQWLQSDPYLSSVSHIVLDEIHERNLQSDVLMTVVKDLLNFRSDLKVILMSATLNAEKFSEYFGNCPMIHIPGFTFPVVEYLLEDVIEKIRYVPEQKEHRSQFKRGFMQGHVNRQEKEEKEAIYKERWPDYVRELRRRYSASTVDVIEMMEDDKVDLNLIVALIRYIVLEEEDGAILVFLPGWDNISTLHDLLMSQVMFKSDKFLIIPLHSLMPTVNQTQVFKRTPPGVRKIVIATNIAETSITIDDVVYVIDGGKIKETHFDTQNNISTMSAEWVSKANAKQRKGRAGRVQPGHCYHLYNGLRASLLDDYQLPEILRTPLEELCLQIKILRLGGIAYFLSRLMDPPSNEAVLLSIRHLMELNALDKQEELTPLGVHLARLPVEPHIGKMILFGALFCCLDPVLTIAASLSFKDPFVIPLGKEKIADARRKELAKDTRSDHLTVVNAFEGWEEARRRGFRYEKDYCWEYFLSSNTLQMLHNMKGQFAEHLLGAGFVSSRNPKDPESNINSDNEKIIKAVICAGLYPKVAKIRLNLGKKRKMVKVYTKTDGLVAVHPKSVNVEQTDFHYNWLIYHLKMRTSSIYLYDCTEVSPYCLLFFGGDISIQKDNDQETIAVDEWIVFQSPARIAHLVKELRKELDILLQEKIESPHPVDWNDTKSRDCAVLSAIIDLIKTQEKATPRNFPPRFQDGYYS


Assays:
Assay in all cases: FOREST: bead pull-down of RNA structure library v1, barcode microarray; U1A/LIN28A: 20 mM HEPES pH 7.5, 80 mM KCl, 20 mM NaCl, 10% glycerol, 2 mM DTT, 0.1 ug/uL BSA, 4 C; BG4/CIRBP/DHX36: 10 mM Tris-HCl pH 7.5, 100 mM KCl (or LiCl),; high values mean tight binding
LIN28A = biological target: T1, LIN28A
CIRBP = biological target: T2, CIRBP
DHX36 = biological target: T3, DHX36

Binder | binding signal (LIN28A) | binding signal (CIRBP) | binding signal (DHX36)
hsa-mir-5585 (structured_RNA) RNA: GGGACAGCACGCAAGGUCUCGACAAAGAGGUGUACGAAGUUUCAGCUCGAGAGGUCAGAGGAUUGCUCCUGAGCUGAAGCUUCGUGCAC | -0.0545 z-score | -0.104 z-score | -0.0916 z-score
hsa-mir-1253 (structured_RNA) RNA: GGGAACGGGUAAGUAGGUAUCACACCACGGUGUACGAAGUUUCAGCUGCAGAUGUGGACUGCUAAAUGCAGCUGAAGCUUCGUGCAC | -0.0551 z-score | 0.174 z-score | 0.0774 z-score
hsa-mir-3692 (structured_RNA) RNA: GGGAAUGGCAGUUUACUAACGGAGGACGGGUGUACGAAGUUUCAGCAUACUGGAGCAAUAGAUACAGUUGCUGAAGCUUCGUGCAC | -0.0553 z-score | 0.268 z-score | -1.3 z-score
hsa-mir-891b (structured_RNA) RNA: GGGCCUUAACAUGGAACCAAGGGUGCCAGGUGUACGAAGUUUCAGCUUGAUUCAGUAAAACAUUCAAGCUGAAGCUUCGUGCAC | -0.0565 z-score | -0.906 z-score | 0.108 z-score
hsa-mir-340 (structured_RNA) RNA: GGGAAAUAGCUGCGACGGCGCAUCCUAUGGUGUACGAAGUUUCAGCCUGAUUGUCAUAUGUCGUUUGUGGGAUCCGGCUGAAGCUUCGUGCAC | -0.0566 z-score | 0.348 z-score | -0.247 z-score
hsa-mir-6862-2_6862-1 (structured_RNA) RNA: GGGAAAAGUGGGUGCAACACUCUGGUUAGGUGUACGAAGUUUCAGCGAGACUUUGUGAUUUGUCUCCAAAGCCUCGCUGAAGCUUCGUGCAC | -0.0635 z-score | 0.44 z-score | -0.996 z-score
hsa-mir-320e (structured_RNA) RNA: GGGAACGCUAUAGGACUGAUUGAACAGAGGUGUACGAAGUUUCAGCUUCUUCCUGGAGUCGGGGAAAAGGCUGAAGCUUCGUGCAC | -0.0647 z-score | 1.74 z-score | 0.373 z-score
hsa-mir-4468 (structured_RNA) RNA: GGGCAGGCGACAGUUAGGGACUUGUUCAGGUGUACGAAGUUUCAGCCUUUGGUGGCUAUGGUUGACUGGGCCACUCAGAGGCUGAAGCUUCGUGCAC | -0.0692 z-score | -1.58 z-score | -0.158 z-score
hsa-mir-548f-2 (structured_RNA) RNA: GGGAGCCUUUCUGCUCAUAAUUCCCCGGGGUGUACGAAGUUUCAGCUUUUAUCAUUACUUUUAAUGGCAAAAGCUGAAGCUUCGUGCAC | -0.0762 z-score | 0.199 z-score | 0.645 z-score
hsa-mir-1249 (structured_RNA) RNA: GGGACGUCAUCCUCGCGCCUUACAGAGUGGUGUACGAAGUUUCAGCAAGUUCCCUCUGGCUGGAACGCUGAAGCUUCGUGCAC | -0.083 z-score | 0.306 z-score | -0.666 z-score
hsa-mir-8062 (structured_RNA) RNA: GGGACCAAGUCUGAUACCCCUGCUCCACGGUGUACGAAGUUUCAGCUUGCUCACGGUAAGAAAAACAUGAGUAAGCUGAAGCUUCGUGCAC | -0.086 z-score | 0.954 z-score | -0.0682 z-score
hsa-mir-378j (structured_RNA) RNA: GGGAGAUGCGGAUACGGCGUAAGAAUUCGGUGUACGAAGUUUCAGCAGAAGAACUGCUGAAGCUUCGUGCAC | -0.0862 z-score | -0.149 z-score | -1.3 z-score
hsa-mir-4491 (structured_RNA) RNA: GGGAGAAACCCAUGUUAGGACCCGCCUAGGUGUACGAAGUUUCAGCCAUUAACGUGGACCAGACAAUAUUAAUGGCUGAAGCUUCGUGCAC | -0.0863 z-score | 0.374 z-score | 0.0951 z-score
hsa-mir-4419a (structured_RNA) RNA: GGGAUACAAGCGUUUGACGUGUCAGUCUGGUGUACGAAGUUUCAGCCUCGGGAGGCUGAGGCUGAAGCUUCGUGCAC | -0.0873 z-score | 0.126 z-score | -0.34 z-score
hsa-mir-4301 (structured_RNA) RNA: GGGAAACCCACGUUCUGCCCAAUACUAUGGUGUACGAAGUUUCAGCGUGAACAUUGCAUGCUGAAGCUUCGUGCAC | -0.0884 z-score | 0.213 z-score | -1.21 z-score
hsa-mir-3153 (structured_RNA) RNA: GGGAAACUGCGUGUUAUGAUGUUCUGGCGGUGUACGAAGUUUCAGCCCCCCAAUUAAAGUAGAUUGGGGGGCUGAAGCUUCGUGCAC | -0.0885 z-score | -0.218 z-score | 0.596 z-score
hsa-mir-4443 (structured_RNA) RNA: GGGAGAAAAUAUCGGGGACCAGAGACUCGGUGUACGAAGUUUCAGCUUUUAGAAGCUGAAGCUUCGUGCAC | -0.0901 z-score | 0.312 z-score | -0.794 z-score
hsa-mir-3681 (structured_RNA) RNA: GGGACCUAGAAAGGCAGCGCCAGAUAAAGGUGUACGAAGUUUCAGCCUGUGCAGGGCCAACUGUGCACACGCUGAAGCUUCGUGCAC | -0.091 z-score | 1.25 z-score | 0.178 z-score
hsa-mir-513b (structured_RNA) RNA: GGGAAGGGGAAUGUCAUAACUGUAAACGGGUGUACGAAGUUUCAGCAUUUAUGUGAACUAAAAUAUAAAUGCUGAAGCUUCGUGCAC | -0.0955 z-score | -0.548 z-score | -0.321 z-score
hsa-mir-369 (structured_RNA) RNA: GGGAAGCACGACUAGGAUUUUCUACACGGGUGUACGAAGUUUCAGCUAUUCGCUUUAUUGACUUCGAAUAGCUGAAGCUUCGUGCAC | -0.097 z-score | -0.933 z-score | -0.622 z-score
hsa-mir-3915 (structured_RNA) RNA: GGGACAGAAUGUACUGGCCAUGCAGUGGGGUGUACGAAGUUUCAGCUAUUGCAAAGAUUUUCAAUAGCUGAAGCUUCGUGCAC | -0.0997 z-score | -0.518 z-score | 0.88 z-score
hsa-mir-3202-2 (structured_RNA) RNA: GGGAAACCGCGAGACACGGCGUAUCAUAGGUGUACGAAGUUUCAGCUAAUGCUCUGAAAAUGACUCCAAUCAUUAGCUGAAGCUUCGUGCAC | -0.101 z-score | -0.507 z-score | -1.19 z-score
hsa-mir-8053 (structured_RNA) RNA: GGGAAAGAAUCCUGGUUUAGCCGCCUCAGGUGUACGAAGUUUCAGCGGCAGAAAUGUCGCUGAAGCUUCGUGCAC | -0.103 z-score | 0.971 z-score | -0.422 z-score
hsa-mir-1470 (structured_RNA) RNA: GGGACUGUGGUUAACGCCUGACCCCUAGGGUGUACGAAGUUUCAGCCCGGGGCAGGAGACCCCGCGGCUGAAGCUUCGUGCAC | -0.109 z-score | 0.973 z-score | -0.105 z-score
hsa-mir-4510 (structured_RNA) RNA: GGGAAUCCAGCGUCUGUGUCACGGGAAAGGUGUACGAAGUUUCAGCGGUUGUUAGAUAGACAACUGCUGAAGCUUCGUGCAC | -0.11 z-score | -0.39 z-score | -0.621 z-score
NEAT1_ParasoR_ID5 (structured_RNA) RNA: GGGAAGGGCAGCUGGACCUACCCAAUUAGGUGUACGAAGUUUCAGCGGAACUGCCAAACUAUUUUCCGCUGAAGCUUCGUGCAC | -0.11 z-score | 0.403 z-score | -0.0134 z-score
